23 compounds from US9169270B2, “1-phenyl-substituted heterocyclyl derivatives and their use as prostaglandin D2 receptor modulators” (Actelion Pharmaceuticals Ltd., priority 2012, dated 2015) can be followed below.

The chains behind the UniProt entries cited, without tags or fusion partners. Where a name states a change or a piece, a line headed by the entry shows the natural chain unless it says otherwise.
UniProt Q9Y5Y4: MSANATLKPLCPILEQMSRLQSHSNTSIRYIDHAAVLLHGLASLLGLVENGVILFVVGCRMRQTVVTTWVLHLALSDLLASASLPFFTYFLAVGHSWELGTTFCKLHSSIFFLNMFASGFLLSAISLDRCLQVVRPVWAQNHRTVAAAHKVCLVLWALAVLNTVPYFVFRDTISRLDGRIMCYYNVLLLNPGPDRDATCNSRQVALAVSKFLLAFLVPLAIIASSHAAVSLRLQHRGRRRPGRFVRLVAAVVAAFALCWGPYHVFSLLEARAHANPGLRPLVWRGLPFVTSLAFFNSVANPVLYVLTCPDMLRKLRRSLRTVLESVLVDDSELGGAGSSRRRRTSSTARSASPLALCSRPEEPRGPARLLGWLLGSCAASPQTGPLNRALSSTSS

Structures are written as SMILES.

This assay deals with hCRTH2 receptor (Homo sapiens (Human), UniProt Q9Y5Y4). Kind of assay: hCRTH2 receptor membranes radioligand (3H-PGD2) displacement assay. Conditions: hCRTH2 membrane fragments, Binding-Buffer with 0.1% BSA. As for the experimental part: Biological Assays: Preparation of hCRTH2 Receptor Membranes and Radioligand Displacement Assay:
First, recombinant HEK293-hCRTH2 cells were detached from culture plates into 5 ml buffer A/plate (Buffer A: 5 mM Tris, 1 mM MgCl2-6H2O pH=7.4) using a rubber policeman. Cells were then transferred into centrifugation tubes and centrifuged for 5 min at 400 g. The cell pellet was resuspended in the same buffer and tubes were frozen at −80° C. Cells were thawed and membrane fragments were generated by homogenization using a polytron homogenizer (30 seconds). The membrane fragments were then centrifuged at 3000 g for 20 minutes and resuspended in buffer C (Buffer C: 75 mM Tris, 25 mM MgCl2, 250 mM Saccharose pH 7.4). Aliquots of membrane fragments were stored at −20° C.
Binding assay was performed in a final assay volume of 250 μl. First, 25 μl of test compound, previously diluted in Binding-Buffer (Binding-Buffer: 50 mM Tris-Base, 100 mM NaCl, 1 mM EDTA, 0.1% BSA (protease free), 0.01% NaN3, 10 mM MnCl2, pH 7.0) was placed into each well. After addition of 75 μl Binding-Buffer, 50 μl of the radioligand ^3H-PGD2 (at 2.5 nM (220.000 dpm/well) from ANAWA ART0662) was added to each well. Binding assay was started by addition of 100 μl CRTH2 membrane fragments, reaching a final concentration of 20 μg/well. For non-specific binding, PGD2 was added to the reaction mixture to […] final concentration. This assay mix was incubated for 90 minutes at room temperature and then filtered through a GF/C filter 96-well plate which was pre-soaked for 3 hours in 0.5% polyethyleneimine (PEI). The filter-wells were washed three times with ice cold Binding-Buffer. Then, 40 μl of Microscint-40 (Packard) was added to each well and the retained radioactivity quantified in a Topcount (Packard).
The IC50 is the concentration needed to halve the response being measured. A low value points to greater potency in that assay. Turning to `O=C(O)COc1ccc(Cl)cc1[C@@H]1c2scnc2CCN1C(=O)OCc1c(F)cccc1F` [Example 73, (R)-4-(2-Carboxymethoxy-5-chloro-phenyl)-6,7-dihydro-4H-thiazolo[5,4-c]pyridine-5-carboxylic acid 2,6-difluoro-benzyl ester], the IC50 amounted to 0.3 nM.

As for `O=C(O)COc1ccc(Cl)cc1[C@@H]1c2scnc2CCN1C(=O)OCC1CCCCC1` [Example 66, (R)-4-(2-Carboxymethoxy-5-chloro-phenyl)-6,7-dihydro-4H-thiazolo[5,4-c]pyridine-5-carboxylic acid cyclohexylmethyl ester], the IC50 came out at 0.7 nM.

For `O=C(O)COc1ccc(Cl)cc1[C@@H]1c2scnc2CCN1C(=O)OCc1cccc(F)c1` [Example 76, (R)-4-(2-Carboxymethoxy-5-chloro-phenyl)-6,7-dihydro-4H-thiazolo[5,4-c]pyridine-5-carboxylic acid 3-fluoro-benzyl ester], the half-inhibitory concentration (IC50) was 0.2 nM.

`O=C(O)COc1ccc(Cl)cc1C1c2scnc2CCN1C(=O)OCc1cccc(Cl)c1` (racemic) [Example 85, (±)-4-(2-Carboxymethoxy-5-chloro-phenyl)-6,7-dihydro-4H-thiazolo[5,4-c]pyridine-5-carboxylic acid 3-chloro-benzyl ester] gave an IC50 of 7 nM.

`O=C(O)COc1ccc(Cl)cc1C1c2scnc2CCN1C(=O)NCc1ccccc1` (racemic) [Example 4, (±)-[2-(5-Benzylcarbamoyl-4,5,6,7-tetrahydro-thiazolo[5,4-c]pyridin-4-yl)-4-chloro-phenoxy]-acetic acid] returned an IC50 of 62 nM.

`O=C(O)COc1ccc(Cl)cc1[C@@H]1c2scnc2CCN1C(=O)[C@@H]1C[C@H]1c1ccccc1` [Example 5, {4-Chloro-2-[(R)-5-((1R,2R)-2-phenyl-cyclopropanecarbonyl)-4,5,6,7-tetrahydro-thiazolo[5,4-c]pyridin-4-yl]-phenoxy}-acetic acid]: the IC50 is 2.5 nM.

In turn, `O=C(O)COc1ccc(Cl)cc1[C@@H]1c2scnc2CCN1C(=O)OCc1ccc(F)cc1F` [Example 59, (R)-4-(2-Carboxymethoxy-5-chloro-phenyl)-6,7-dihydro-4H-thiazolo[5,4-c]pyridine-5-carboxylic acid 2,4-difluoro-benzyl ester] yielded an IC50 of 0.4 nM.

Compound `O=C(O)COc1ccc(Cl)cc1C1c2scnc2CCN1C(=O)OCc1c(Cl)cccc1Cl` (racemic) [Example 87, (±)-4-(2-Carboxymethoxy-5-chloro-phenyl)-6,7-dihydro-4H-thiazolo[5,4-c]pyridine-5-carboxylic acid 2,6-dichloro-benzyl ester] yielded a half-inhibitory concentration (IC50) of 8.7 nM.

`O=C(O)COc1ccc(Cl)cc1[C@@H]1c2scnc2CCN1C(=O)OCc1ccccc1` [Example 103, (R)-4-(2-Carboxymethoxy-5-chloro-phenyl)-6,7-dihydro-4H-thiazolo[5,4-c]pyridine-5-carboxylic acid benzyl ester]: the IC50 worked out at 2.3 nM.

Consider `O=C(O)COc1ccc(Cl)cc1C1c2scnc2CCN1C(=O)CCn1ncc2ccccc21` (racemic) [Example 33, (±)-{4-Chloro-2-[5-(3-indazol-1-yl-propionyl)-4,5,6,7-tetrahydro-thiazolo[5,4-c]pyridin-4-yl]-phenoxy}-acetic acid], for which the IC50 stood at 18 nM.

Compound `COc1ccccc1CNC(=S)N1CCc2ncsc2C1c1cc(Cl)ccc1OCC(=O)O` (racemic) [Example 110, (±)-{4-Chloro-2-[5-(2-methoxy-benzylthiocarbamoyl)-4,5,6,7-tetrahydro-thiazolo[5,4-c]pyridin-4-yl]-phenoxy}-acetic acid] had an IC50 of 9.5 nM.

Compound `O=C(O)COc1ccc(Cl)cc1C1c2scnc2CCN1C(=O)C1CC1` (racemic) [Example 43, (±)-[4-Chloro-2-(5-cyclopropanecarbonyl-4,5,6,7-tetrahydro-thiazolo[5,4-c]pyridin-4-yl)-phenoxy]-acetic acid] returned a half-maximal inhibitory concentration (IC50) of 472 nM.

Regarding `Nc1nc2c(s1)C(c1cc(Cl)ccc1OCC(=O)O)N(C(=O)OCc1ccccc1)CC2` (racemic) [Example 17, (±)-2-Amino-4-(2-carboxymethoxy-5-chloro-phenyl)-6,7-dihydro-4H-thiazolo[5,4-c]pyridine-5-carboxylic acid benzyl ester], the 50% inhibitory concentration (IC50) is 2.2 nM.

Regarding `O=C(O)COc1ccc(Cl)cc1[C@@H]1c2scnc2CCN1C(=O)[C@H]1C[C@@H]1c1ccccc1` [Example 6, {4-Chloro-2-[(R)-5-((1S,2S)-2-phenyl-cyclopropanecarbonyl)-4,5,6,7-tetrahydro-thiazolo[5,4-c]pyridin-4-yl]-phenoxy}-acetic acid], the IC50 worked out at 871 nM.

Take `Cn1cc(CCC(=O)N2CCc3ncsc3C2c2cc(Cl)ccc2OCC(=O)O)c2ccccc21` (racemic) [Example 28, (±)-(4-Chloro-2-{5-[3-(1-methyl-1H-indol-3-yl)-propionyl]-4,5,6,7-tetrahydro-thiazolo[5,4-c]pyridin-4-yl}-phenoxy)-acetic acid]: the IC50 is 15.7 nM.

On to `O=C(O)COc1ccc(Cl)cc1C1c2scnc2CCN1C(=O)OCc1cnccn1` (racemic) [Example 95, (±)-4-(2-Carboxymethoxy-5-chloro-phenyl)-6,7-dihydro-4H-thiazolo[5,4-c]pyridine-5-carboxylic acid pyrazin-2-ylmethyl ester], for which the IC50 was 32.2 nM.

Consider `O=C(O)COc1ccc(Cl)cc1[C@@H]1c2scnc2CCN1C(=O)OCc1cc(Cl)ccc1F` [Example 68, (R)-4-(2-Carboxymethoxy-5-chloro-phenyl)-6,7-dihydro-4H-thiazolo[5,4-c]pyridine-5-carboxylic acid 5-chloro-2-fluoro-benzyl ester], for which the IC50 is 0.5 nM.

`O=C(O)COc1ccc(Cl)cc1C1c2scnc2CCN1C(=O)CCN1CCCc2ccccc21` (racemic) [Example 53, (±)-{4-Chloro-2-[5-(3-3,4-dihydro-2H-quinolin-1-yl-propionyl)-4,5,6,7-tetrahydro-thiazolo[5,4-c]pyridin-4-yl]-phenoxy}-acetic acid] had an IC50 of 14.4 nM.

`O=C(O)COc1ccc(Cl)cc1C1c2scnc2CCN1C(=O)/C=C/c1ccc(F)cc1` (racemic) [Example 55, (±)-(4-Chloro-2-{5-[(E)-3-(4-fluoro-phenyl)-acryloyl]-4,5,6,7-tetrahydro-thiazolo[5,4-c]pyridin-4-yl}-phenoxy)-acetic acid]: the IC50 is 21.7 nM.

As to `O=C(O)COc1ccc(Cl)cc1[C@H]1c2scnc2CCN1C(=O)OCc1ccccc1` [Example 104, (S)-4-(2-Carboxymethoxy-5-chloro-phenyl)-6,7-dihydro-4H-thiazolo[5,4-c]pyridine-5-carboxylic acid benzyl ester], the half-maximal inhibitory concentration (IC50) stood at 286 nM.

For `CN(C)c1nc2c(s1)C(c1cc(Cl)ccc1OCC(=O)O)N(C(=O)OCc1ccccc1)CC2` (racemic) [Example 117, (±)-4-(2-Carboxymethoxy-5-chloro-phenyl)-2-dimethylamino-6,7-dihydro-4H-thiazolo[5,4-c]pyridine-5-carboxylic acid benzyl ester], the half-maximal inhibitory concentration (IC50) was determined as 204 nM.

For the compound `Cc1noc(C)c1CCC(=O)N1CCc2ncsc2C1c1cc(Cl)ccc1OCC(=O)O` (racemic) [Example 42, (±)-(4-Chloro-2-{5-[3-(3,5-dimethyl-isoxazol-4-yl)-propionyl]-4,5,6,7-tetrahydro-thiazolo[5,4-c]pyridin-4-yl}-phenoxy)-acetic acid], the IC50 amounted to 945 nM.

`COc1ccccc1CNC(=O)N1CCc2ncsc2C1c1cc(Cl)ccc1OCC(=O)O` (racemic) [Example 109, (±)-{4-Chloro-2-[5-(2-methoxy-benzylcarbamoyl)-4,5,6,7-tetrahydro-thiazolo[5,4-c]pyridin-4-yl]-phenoxy}-acetic acid]: the half-inhibitory concentration (IC50) worked out at 5.5 nM.
